What is called IC50 is the point on the concentration scale where inhibition reaches its midpoint.

The text below walks through data of patent publication US8598312B2, “Inhibitors of antigen presentation by MHC class II molecules” (Provid Pharmaceuticals, Inc., priority 2003, dated 2013).

In this experiment the test system is DR1 (HLA-DR molecules). As to conditions: read-out: Inhibition of peptide binding IC50 DR1.

For `CC(=O)N[C@H](C(=O)N[C@@H](CCCNC(=N)N)C(=O)N1Cc2ccccc2C[C@H]1C(=O)N[C@@H](Cc1ccccc1)C(=O)N1CCCC[C@H]1C(N)=O)C1CCCC1` [Ac(Cpg)R(Tic)F(hPro), Ac(Cpg)R(Tic)F(homo Pro)], the 50% inhibitory concentration (IC50) is > 100 µM.
